# Values quoted from earlier work, collected in patent publication US20170307631A1, “METHODS, SYSTEMS AND PRODUCTS FOR PREDICTING RESPONSE OF TUMOR CELLS TO A THERAPEUTIC AGENT AND TREATING A PATIENT ACCORDING TO THE PREDICTED RESPONSE” (Merrimack Pharmaceuticals, Inc., priority 2008, published 2017).
# System: tumors known to express ErbB1 (EGFR)
# Conditions: patients, even when tumors are known to express ErbB1 (EGFR); cited from earlier work
substance,measurement,value
cetuximab,average response rate for monotherapy,15-20 % of patients
